{
  "sequences": {"note": "Chains of the proteins cited; added tags and fusions are not shown.", "UniProt P09619, whole entry": "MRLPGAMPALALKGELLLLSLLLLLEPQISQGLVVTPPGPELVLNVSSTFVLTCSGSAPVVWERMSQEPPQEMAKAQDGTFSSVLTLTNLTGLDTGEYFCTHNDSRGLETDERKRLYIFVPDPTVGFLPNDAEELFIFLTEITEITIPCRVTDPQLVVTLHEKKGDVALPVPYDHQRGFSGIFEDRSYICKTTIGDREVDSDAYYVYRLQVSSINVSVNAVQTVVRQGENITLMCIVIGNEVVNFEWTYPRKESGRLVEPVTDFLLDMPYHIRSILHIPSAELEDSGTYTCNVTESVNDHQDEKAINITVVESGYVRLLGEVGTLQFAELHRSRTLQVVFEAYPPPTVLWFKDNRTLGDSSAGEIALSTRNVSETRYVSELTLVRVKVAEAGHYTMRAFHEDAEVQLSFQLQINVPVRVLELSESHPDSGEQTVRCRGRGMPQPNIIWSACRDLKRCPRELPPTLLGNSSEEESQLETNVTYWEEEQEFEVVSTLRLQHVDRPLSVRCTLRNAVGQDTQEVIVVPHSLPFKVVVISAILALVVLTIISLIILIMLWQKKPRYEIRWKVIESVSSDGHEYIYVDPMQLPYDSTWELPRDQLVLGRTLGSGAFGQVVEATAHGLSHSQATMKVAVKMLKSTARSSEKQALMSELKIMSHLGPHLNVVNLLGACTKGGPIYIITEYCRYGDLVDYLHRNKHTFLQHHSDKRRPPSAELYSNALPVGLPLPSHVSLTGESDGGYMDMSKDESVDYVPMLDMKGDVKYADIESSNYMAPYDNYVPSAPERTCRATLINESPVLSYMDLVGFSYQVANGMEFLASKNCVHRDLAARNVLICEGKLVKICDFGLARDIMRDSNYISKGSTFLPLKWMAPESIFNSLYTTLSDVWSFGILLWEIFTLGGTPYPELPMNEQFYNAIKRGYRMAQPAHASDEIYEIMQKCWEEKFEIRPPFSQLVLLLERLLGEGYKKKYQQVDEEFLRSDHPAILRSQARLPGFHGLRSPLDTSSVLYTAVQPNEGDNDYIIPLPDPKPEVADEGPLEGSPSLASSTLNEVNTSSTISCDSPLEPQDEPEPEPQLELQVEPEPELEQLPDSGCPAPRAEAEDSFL"},
  "source": "ChEMBL document CHEMBL1955729",
  "about": "“N⁴-(3-Bromophenyl)-7-(substituted benzyl) pyrrolo[2,3-d]pyrimidines as potent multiple receptor tyrosine kinase inhibitors: design, synthesis, and in vivo evaluation” (Bioorg Med Chem, 2012)",
  "target": "Platelet-derived growth factor receptor beta (Homo sapiens, UniProt P09619)",
  "data": [
    {"smiles": "Nc1nc(Nc2cccc(Br)c2)c2cc(Cc3ccc(-c4ccccc4)cc3)[nH]c2n1", "values": [
      {"measurement": "IC50", "result": "> 50", "unit": "µM"}
    ]}
  ]
}
